Reference: patent US6462178B1, “G protein” (Yong Hou Wong, priority 1999, dated 2002)

Protein sequences, listed by entry. Tags and fused reporters are not part of them. Residues count along the entry.
UniProt P22888, 27-699, species assumed: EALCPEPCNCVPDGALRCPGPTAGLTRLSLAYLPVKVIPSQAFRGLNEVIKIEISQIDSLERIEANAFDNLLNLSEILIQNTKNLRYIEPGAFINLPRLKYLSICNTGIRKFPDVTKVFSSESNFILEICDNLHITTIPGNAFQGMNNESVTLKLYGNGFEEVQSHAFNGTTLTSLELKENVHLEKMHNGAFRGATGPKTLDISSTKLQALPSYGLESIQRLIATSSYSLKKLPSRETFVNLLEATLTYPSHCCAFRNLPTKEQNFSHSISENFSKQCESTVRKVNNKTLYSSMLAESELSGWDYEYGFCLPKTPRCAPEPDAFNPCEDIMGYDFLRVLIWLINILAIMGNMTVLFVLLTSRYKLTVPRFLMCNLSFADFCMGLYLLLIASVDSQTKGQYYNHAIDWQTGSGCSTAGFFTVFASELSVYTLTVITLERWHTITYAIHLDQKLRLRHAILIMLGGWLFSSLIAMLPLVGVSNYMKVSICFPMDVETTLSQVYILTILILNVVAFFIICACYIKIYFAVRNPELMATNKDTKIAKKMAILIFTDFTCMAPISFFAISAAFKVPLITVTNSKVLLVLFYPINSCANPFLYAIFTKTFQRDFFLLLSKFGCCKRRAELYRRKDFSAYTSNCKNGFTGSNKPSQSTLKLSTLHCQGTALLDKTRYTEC

How the values were obtained:
[1] = target: T1, luteinizing hormone receptor (LHR) (Homo sapiens, UniProt P22888); conditions: cited from earlier work
T1 construct: expressed in transfected cells; host or cells: COS-7

μ-opioid receptor = target: T2, μ-opioid receptor (Homo sapiens, UniProt P35372); test: IP accumulation, μ-opioid receptor coexpressed with Gα subunit in COS-7; format: cell-based; conditions: 100 nM DAGO; for IP Formation % Res.: relative to basal
T2 construct: expressed in transfected cells; host or cells: COS-7

[2] = COS-7, receptor + 16z25 chimera
[3] = COS-7, receptor + 16z44 chimera

hCG: human choriogonadotropin, agonist of the luteinizing hormone receptor
stimulation of PLC ([1]; COS-7, luteinizing hormone receptor + Gα16, 1 μg/ml): 3 fold
IP Formation Agonist ([1]; COS-7, receptor + Gα16, 1 μg/ml hCG): 30.6 ± 1.2
IP Formation % Res. ([1]; COS-7, receptor + Gα16, 1 μg/ml hCG, relative to basal): 300a %

[D-Ala^2,N-Me-Phe^4,Gly^5-ol]enkephalin [DAGO]
IP Formation Agonist (μ-opioid receptor; [2]): 74.0 ± 3.7
IP Formation % Res. (μ-opioid receptor; [2]): 224%
IP Formation Agonist (μ-opioid receptor; [3]): 68.5 ± 8.7
IP Formation % Res. (μ-opioid receptor; [3]): 269%
IP Formation Agonist (μ-opioid receptor; COS-7, receptor + Gα16): 16.0 ± 0.8
IP Formation % Res. (μ-opioid receptor; COS-7, receptor + Gα16): 134%
